Data as given in ChEMBL document CHEMBL4831477, “Structure-Enabled Discovery of Novel Macrocyclic Inhibitors Targeting Glutaminase 1 Allosteric Binding Site” (J Med Chem, 2021).

How the values were obtained:
[1] = molecular target: T1, Glutaminase kidney isoform, mitochondrial (Homo sapiens) (UniProt O94925); assay: Noncompetitive inhibition of human GLS1 expressed in Escherichia coli strain BL21 (DE3) assessed as decrease in Vmax using varying concentrations of glutamine as substrate by Michaelis-Menten plot analysis
T1 sequence (whole entry): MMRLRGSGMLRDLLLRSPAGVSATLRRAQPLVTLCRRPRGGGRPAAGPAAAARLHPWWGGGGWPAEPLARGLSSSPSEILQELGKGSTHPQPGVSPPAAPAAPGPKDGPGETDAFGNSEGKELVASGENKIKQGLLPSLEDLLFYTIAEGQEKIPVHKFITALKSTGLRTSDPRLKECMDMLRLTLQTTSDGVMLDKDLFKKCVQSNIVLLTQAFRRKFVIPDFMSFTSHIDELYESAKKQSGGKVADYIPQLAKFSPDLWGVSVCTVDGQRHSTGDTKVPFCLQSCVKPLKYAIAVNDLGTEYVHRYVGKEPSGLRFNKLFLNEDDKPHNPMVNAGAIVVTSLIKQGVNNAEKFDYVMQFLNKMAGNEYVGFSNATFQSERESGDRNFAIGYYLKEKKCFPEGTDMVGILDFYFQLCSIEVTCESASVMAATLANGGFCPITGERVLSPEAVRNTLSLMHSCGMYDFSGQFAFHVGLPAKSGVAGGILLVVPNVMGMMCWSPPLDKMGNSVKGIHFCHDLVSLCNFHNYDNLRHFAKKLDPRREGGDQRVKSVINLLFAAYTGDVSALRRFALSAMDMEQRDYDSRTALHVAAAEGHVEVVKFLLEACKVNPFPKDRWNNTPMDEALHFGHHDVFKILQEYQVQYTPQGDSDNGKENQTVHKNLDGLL

[2] = molecular target: T1, Glutaminase kidney isoform, mitochondrial (Homo sapiens); assay: Inhibition of GLS1 in human HCT-116 cells assessed as reduction in ATP production after 12 hrs; assay type: cell-based
[3] = molecular target: T1, Glutaminase kidney isoform, mitochondrial (Homo sapiens); assay: Inhibition of GLS1 in human HCT-116 cells assessed as decrease in basal oxygen consumption rate at 1 uM after 12 hrs by seahorse XFe analyser based assay; assay type: cell-based
[4] = molecular target: T1, Glutaminase kidney isoform, mitochondrial (Homo sapiens); assay: Inhibition of GLS1 in human HCT-116 cells assessed as decrease in maximal oxygen consumption rate at 1 uM after 12 hrs by seahorse XFe analyser based assay; assay type: cell-based
[5] = molecular target: T1, Glutaminase kidney isoform, mitochondrial (Homo sapiens); assay: Inhibition of GLS1 in human HCT-116 cells assessed as decrease in extracellular acidification rate at 1 uM after 12 hrs by seahorse XFe analyser based assay; assay type: cell-based

Measured: inhibition

O=C1Cc2cccc(c2)OCC/C=C/CCOc2cccc(c2)CC(=O)Nc2nnc(s2)CCCCc2ccc(nn2)N1
active: all assays above

Activity calls are given as the source filed them.
